ChEMBL document CHEMBL5370654, “Discovery of 3-Phenyl Indazole-Based Novel Chemokine-like Receptor 1 Antagonists for the Treatment of Psoriasis” (J Med Chem, 2023)

Experiments:
Format in all cases: functional, organism-based
[1] = test system: Mus musculus; assay: Antiinflammatory activity against imiquimod-induced BALB/c mouse psoriasis model assessed as reduction in total psoriasis at 2 to 30 mg/kg, po qd measured on day 3; conditions: dose 2-30 mg/kg, time 4.0 day
[2] = test system: Mus musculus; assay: Antiinflammatory activity against imiquimod-induced BALB/c mouse psoriasis model assessed as improvement in skin conditions at 30 mg/kg, po qd measured on day 4; conditions: time 4.0 day
[3] = test system: Mus musculus; assay: Antiinflammatory activity against imiquimod-induced BALB/c mouse psoriasis model assessed as reduction in epidermal proliferation in mouse back skin at 30 mg/kg, po qd administered for 7 days by hematoxylin and eosin staining based analysis; conditions: time 7.0 day
[4] = test system: Mus musculus; assay: Antiinflammatory activity against imiquimod-induced BALB/c mouse psoriasis model assessed as psoriasis area and severity index scores at 30 mg/kg, po qd measured on day 6 to 7; conditions: time 6-7 day
[5] = test system: Mus musculus; assay: Antiinflammatory activity against imiquimod-induced BALB/c mouse psoriasis model assessed as improvement in psoriasis area and severity index scores at 30 mg/kg, po qd measured on day 4; conditions: time 4.0 day

Q: With `C[C@@H](CC(=O)O)c1ccc(OCc2cc(F)c3c(-c4cc(Cl)c(CO)c(Cl)c4)nn(C4CCCC4)c3c2)cc1` as the molecule, how does the Activity [1] read?
A: inactive

Q: And the Activity [2]?
A: Active

Q: What about the Activity [3] of the same molecule?
A: Active

Q: What about the Activity [4] of the same molecule?
A: Active

Q: What about the Activity [5] of the same molecule?
A: Active

Activity calls are given as the source filed them. No cut-off for these calls is given here.
